Measured values from US12084456B2, “Isocarbostyril alkaloids and functionalization thereof” (The Board of Trustees of the University of Illinois, priority 2018, dated 2024).

Assay: Solubility assay (shake-flask method)
Type: physicochemical
Conditions: thermodynamic from solid, water, stirred 24 hours, LCMS, read-out: aq. Solubility
Method: A calibration was made for each compound by diluting a 1 mM DMSO solution to 10, 25, 50, 75, and 100 μM and then measuring their relative UV absorbance by LC-MS using a Kinetex© Evo C-18 50 mm column running a gradient from 5%→90% MeCN in water over 4 minutes at 0.4 mL/min.
The aqueous solubility of each compound was measured using the shake-flask method. 1.0 mg of compound was diluted to 40 mM with water then stirred for 24 hours. Each solution was then filtered, diluted 10-fold, and analyzed by LCMS. The relative UV absorbance of each compound was then compared to its calibration curve to quantify its aqueous solubility.

**Q.** For `O=C1N[C@@H]2C(=C[C@H](O)[C@@H](O)[C@H]2O)c2cc3c(c(O)c21)OCO3` [compound 4, (+)-narciclasine, reference compound], which solubility at 24 h is on record?
**A.** 340 ± 20 µg/mL (≈ 1110 µM)

≈ marks a conversion by molar mass, not a printed value.
